In US12173004B2, “Pharmaceutical compositions comprising heterocycle fused gamma carboline prodrugs” (INTRA-CELLULAR THERAPIES, INC., priority 2017, dated 2024):
Like-named read-outs stand apart in the source and are kept apart here.

Key:
[1] = test system: Male CD-1 mice; assay: Mouse Tail Flick Assay: time course for analgesia; assay type: in vivo; settings: 1 mg/kg s.c.
[2] = test system: Male CD-1 mice
[3] = molecular target: NOP (Nociceptin Receptor) (Homo sapiens (Human), UniProt P41146); assay: Receptor binding profile: NOP
[4] = molecular target: Delta opioid (Homo sapiens (Human), UniProt P41143); assay: Receptor binding profile: Delta opioid
[5] = test system: Male CD-1 mice; assay: Mouse Tail Flick Assay: analgesia after 14-day chronic administration
[6] = molecular target: mu-opiate receptors (Mus musculus (Mouse), UniProt P42866); assay: Mouse Tail Flick Assay: antagonism of morphine-induced analgesia

## O=C1CN2c3c(cccc3[C@@H]3CN(CCCOc4ccc(F)cc4)CC[C@@H]32)N1 [Example 2, (6bR,10aS)-8-(3-(4-fluorophenoxy)propyl)-6b,7,8,9,10,10a-hexahydro-1H-pyrido[3′,4′:4,5]pyrrolo[1,2,3-de]quinoxalin-2(3H)-one]
[1]; 30 min prior
  TF Latency: 5.77 s
[1]; 2 h prior
  TF Latency: 2.42 s
[1]; 4 h prior
  TF Latency: 1.48 s
[1]; 6 h prior (text: 8 hours)
  TF Latency: 1.36 s
[1]; 24 h prior
  TF Latency: 1.29 s
[2]; 1 mg/kg 30 min before test, naloxone 3 mg/kg i.p. pre-treatment
  mean latency: 1.3 s
[2]; 1 mg/kg 30 min before test, saline pre-treatment
  mean latency: 4.1 s
[2]; 3 mg/kg 30 min before test, naloxone 3 mg/kg i.p. pre-treatment
  mean latency: 1.7 s
[2]; 3 mg/kg 30 min before test, saline pre-treatment
  mean latency: 7.4 s
[2]; 10 mg/kg 30 min before test, saline pre-treatment
  mean latency: 9.8 s
[3]
  Ki (nM) or maximum inhibition, NOP: No inhibition
[4]
  Ki (nM) or maximum inhibition, Delta opioid: No inhibition
[5]; chronic 14-day 0.3 mg/kg, acute 0.01 mg/kg s.c.
  Latency: 1.66 s
[5]; chronic 14-day 0.3 mg/kg, acute 0.03 mg/kg s.c.
  Latency: 1.30 s
[5]; chronic 14-day 0.3 mg/kg, acute 0.1 mg/kg s.c.
  Latency: 2.60 s
[5]; chronic 14-day 0.3 mg/kg, acute 0.3 mg/kg s.c.
  Latency: 3.93 s
[5]; chronic 14-day 0.3 mg/kg, acute 1.0 mg/kg s.c.
  Latency: 5.64 s
[5]; chronic 14-day 0.3 mg/kg, acute vehicle
  Latency: 0.893 s
[5]; chronic 14-day 3.0 mg/kg, acute 0.01 mg/kg s.c.
  Latency: 1.64 s
[5]; chronic 14-day 3.0 mg/kg, acute 0.03 mg/kg s.c.
  Latency: 1.80 s
[5]; chronic 14-day 3.0 mg/kg, acute 0.1 mg/kg s.c.
  Latency: 3.94 s
[5]; chronic 14-day 3.0 mg/kg, acute 0.3 mg/kg s.c.
  Latency: 4.84 s
[5]; chronic 14-day 3.0 mg/kg, acute 1.0 mg/kg s.c.
  Latency: 7.94 s
[5]; chronic 14-day 3.0 mg/kg, acute vehicle
  Latency: 1.04 s
[5]; chronic 14-day vehicle, acute 0.01 mg/kg s.c.
  Latency: 1.87 s
[5]; chronic 14-day vehicle, acute 0.03 mg/kg s.c.
  Latency: 2.50 s
[5]; chronic 14-day vehicle, acute 0.1 mg/kg s.c.
  Latency: 5.26 s
[5]; chronic 14-day vehicle, acute 0.3 mg/kg s.c.
  Latency: 8.26 s
[5]; chronic 14-day vehicle, acute 1.0 mg/kg s.c.
  Latency: 9.74 s

## O=C1CN2c3c(cccc3[C@@H]3CN(CCCC(=O)c4ccc(F)cc4)CC[C@@H]32)N1 [Example 1]
[6]; Group 4 Cmpd/Mor: 0.1 mg/kg compound p.o. 60 min + 5 mg/kg morphine 30 min before test
  mean latency: 8.870 s
[6]; Group 5 Cmpd/Mor: 0.3 mg/kg compound p.o. 60 min + 5 mg/kg morphine 30 min before test
  mean latency: 6.907 s
[6]; Group 6 Cmpd/Mor: 1 mg/kg compound p.o. 60 min + 5 mg/kg morphine 30 min before test
  mean latency: 6.240 s
